Species on record: Homo sapiens
Assay: Selectivity ratio of IC50 for PKA to IC50 for human ROCK2

Ratio IC50: > 4000
SMILES: COc1cccc(CNC(=O)c2c[nH]c3cc(-c4cn[nH]c4)ccc23)c1
